Assay results published in ChEMBL document CHEMBL4033775, “Natural-Products-Inspired Use of the gem-Dimethyl Group in Medicinal Chemistry” (J Med Chem, 2018).
pIC50, pKi: −log10 of the molar value.

Chains of the proteins cited; added tags and fusions are not shown. Lines headed by an entry give the natural chain unless they say otherwise; changes in a name come on top.
UniProt P22894: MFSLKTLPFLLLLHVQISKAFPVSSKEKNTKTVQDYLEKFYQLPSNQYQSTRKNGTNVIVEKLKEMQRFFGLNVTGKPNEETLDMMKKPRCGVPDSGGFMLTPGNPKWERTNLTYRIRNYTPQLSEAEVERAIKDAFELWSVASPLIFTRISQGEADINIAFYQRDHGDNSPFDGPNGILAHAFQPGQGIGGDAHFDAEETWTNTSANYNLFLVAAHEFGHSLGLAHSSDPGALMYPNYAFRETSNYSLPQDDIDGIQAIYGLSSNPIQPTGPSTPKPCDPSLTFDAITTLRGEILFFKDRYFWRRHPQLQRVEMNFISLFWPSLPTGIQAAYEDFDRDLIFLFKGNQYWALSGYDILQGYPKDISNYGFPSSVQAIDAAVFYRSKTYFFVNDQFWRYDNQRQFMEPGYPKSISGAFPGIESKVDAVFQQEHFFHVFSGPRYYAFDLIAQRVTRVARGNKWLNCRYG

Columns and labels:
Neutrophil collagenase = Neutrophil collagenase (Homo sapiens, UniProt P22894); assay: Inhibition of MMP8 (unknown origin) expressed in Escherichia coli BL21(DE3) using Mca-Pro-Leu-Gly-Leu-Dpa-Ala-Arg-NH2 as substrate after 20 to 30 mins by spectrofluorimetric analysis
Prothrombin = Prothrombin (Homo sapiens, UniProt P00734); assay: Inhibition of human plasma thrombin using chromogenix AB as substrate after 30 secs by UV-spectrophotometry

pIC50 (Neutrophil collagenase) | pKi (Prothrombin) | Structure (SMILES)
9.15 |  | COc1ccc(S(=O)(=O)N2CCSC(C)(C)C2C(=O)NO)cc1 (configuration not stated)
 | 7.40 | CC1CNc2c(cccc2S(=O)(=O)N[C@@H](CCCNC(=N)N)C(=O)N2CC[C@@H](C)C[C@@H]2C(=O)O)C1 (some centres not stated) [ARGATROBAN]
